{
  "source": "patent US9133150B2",
  "about": "“O-nitro compounds and pharmaceutical compositions including same” (dated 2015)",
  "key": {"SCC VII tumor [1]": {"system": "SCC VII tumor", "experiment": "Radiosensitization effect of GLYN and SG on SCC VII tumor growth", "conditions": "GLYN 200 mg/kg single dose + 7 Gy radiation; p<0.05 compared with radiation alone", "method": "Mice were implanted subcutaneously with SCC VII tumor cells. When tumors reached 100-150 mm^3, mice with tumors were treated with a single dose of GLYN (200 mg/kg), sodium glycididazole (SG, 400 mg/kg), 7 Gy radiation, or in combination. Tumors were measured immediately before treatment and three times a week thereafter."}, "SCC VII tumor [2]": {"system": "SCC VII tumor", "experiment": "Chemosensitization effect of GLYN in combination with cis-platin on SCC VII tumor growth", "method": "Mice were implanted subcutaneously with a murine squamous cell carcinoma SCC VII tumor cells. When tumors grew to 100-150 mm^3 (12 days after implantation), mice with tumors were treated with a single dose of GLYN (100 mg/kg or 300 mg/kg), cis-platin (CDDP, 2 or 5 mg/kg) or in combination. Tumors were measured immediately before treatment and three times a week thereafter."}, "SCC VII tumor cells [3]": {"system": "SCC VII tumor cells", "experiment": "Production of nitric oxide in tumor cells by GLYN and radiation (DAF-FM diacetate fluorescence)", "conditions": "GLYN 0.1 mM, 1 mM or 10 mM combined with radiation 2 or 10 Gy, versus radiation alone", "method": "SCC VII tumor cells were grown in 96-well plates overnight at 37° C. A fluorescent probe DAF-FM diacetate was added at a concentration of 10 μM for 1 hour and then washed out. GLYN was added in the growth media at concentrations of 0.1 mM, 1 mM or 10 mM. Cells were immediately irradiated with radiation doses of 2 or 10 Gy. The green fluorescence was measured at 0 minutes, 10 minutes, 30 minutes, 1 hour, 2 hours, 6 hours and 24 hours after addition of GLYN using a microplate spectrofluorometer with an excitation at 495 nm and an emission at 515 nm. FIGS. 5a-5d show the production of nitric oxide in SCC VII cells at selected times after exposure to GLYN and radiation. Radiation alone produced a low level of NO in SCC VII tumor cells."}, "SCC VII tumor cells [4]": {"system": "SCC VII tumor cells", "experiment": "Production of nitric oxide (NO) in tumor cells by GLYN (DAF-FM diacetate fluorescence)", "conditions": "GLYN 0.1 mM, 1 mM or 10 mM, FIG. 4a", "method": "SCC VII tumor cells were grown in 96-well plates overnight at 37° C. A fluorescent probe DAF-FM diacetate was added at a concentration of 10 μM for 1 hour and then washed out. GLYN was added in the growth media at concentrations of 0.1 mM, 1 mM or 10 mM. The green fluorescence was measured at 0 minutes, 10 minutes, 30 minutes, 1 hour, 2 hours, 6 hours and 24 hours after addition of GLYN using a microplate spectrofluorometer with an excitation at 495 nm and an emission at 515 nm (see FIGS. 4a and 4b)."}, "[5]": {"conditions": "GLYN 300 mg/kg single dose alone, s.c. SCC VII tumors in mice"}},
  "note": "This is a selection: effects in other tests are not listed, and their absence says nothing.",
  "data": [
    {"smiles": "O=[N+]([O-])OCC1CO1", "note": "(stereo not drawn)", "values": [
      {"measurement": "4x tumor growth delay time", "setting": "SCC VII tumor [1]", "value": 4.4, "unit": "days"},
      {"measurement": "4x TGT (tumor growth time: tumor volume quadrupling time)", "setting": "SCC VII tumor [2]; [5]", "value": "3.6 ± 0.5", "unit": "days"},
      {"measurement": "TGD (tumor growth delay time: 4x TGT of treated tumors minus mean 4x TGT of control tumors)", "setting": "SCC VII tumor [2]; [5]", "value": "0.5 ± 0.5", "unit": "days"},
      {"measurement": "response of SCC VII tumors to the treatment with cis-platin", "setting": "SCC VII tumor [2]; GLYN at doses of 100 mg/kg or 300 mg/kg", "value": "significantly enhanced"},
      {"measurement": "intracellular level of NO", "setting": "SCC VII tumor cells [3]", "value": "slightly increased"},
      {"measurement": "nitric oxide generated in tumor cells", "setting": "SCC VII tumor cells [4]", "value": "depended on the dosage of GLYN"}
    ]}
  ]
}
